Measurements taken from PMC11024795 (GeoHealth, 2024).

Amino acid sequences for entries named in this document (tags omitted). Residues count along the entry.
UniProt Q96P20, 742-991 limits assumed: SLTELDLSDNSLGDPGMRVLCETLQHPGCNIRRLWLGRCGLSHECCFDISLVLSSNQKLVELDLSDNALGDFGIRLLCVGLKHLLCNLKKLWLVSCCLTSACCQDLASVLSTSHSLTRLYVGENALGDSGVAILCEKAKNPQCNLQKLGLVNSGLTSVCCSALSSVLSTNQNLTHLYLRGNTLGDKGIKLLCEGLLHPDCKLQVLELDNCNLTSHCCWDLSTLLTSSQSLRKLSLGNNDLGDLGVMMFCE

Biological target: hNLRP3 LRR recombinant protein (Homo sapiens, UniProt Q96P20)
Assay: Surface plasmon resonance
Format: binding

Structure (SMILES): CCOP(=O)(OCC)Oc1ccc([N+](=O)[O-])cc1 [paraoxon]
- Kd: 325 µM
